# B1: T-cell leukemia/lymphoma protein 1A (Homo sapiens), P56279 (parent)
# chain: MAECPTLGEAVTDHPDRLWAWEKFVYLDEKQHAWLPLTIEIKDRLQLRVLLRREDVVLGRPMTPTQIGPSLLPIMWQLYPDGRYRSSDSSFWRLVYHIKIDGVEDMLLELLPDD
# partner: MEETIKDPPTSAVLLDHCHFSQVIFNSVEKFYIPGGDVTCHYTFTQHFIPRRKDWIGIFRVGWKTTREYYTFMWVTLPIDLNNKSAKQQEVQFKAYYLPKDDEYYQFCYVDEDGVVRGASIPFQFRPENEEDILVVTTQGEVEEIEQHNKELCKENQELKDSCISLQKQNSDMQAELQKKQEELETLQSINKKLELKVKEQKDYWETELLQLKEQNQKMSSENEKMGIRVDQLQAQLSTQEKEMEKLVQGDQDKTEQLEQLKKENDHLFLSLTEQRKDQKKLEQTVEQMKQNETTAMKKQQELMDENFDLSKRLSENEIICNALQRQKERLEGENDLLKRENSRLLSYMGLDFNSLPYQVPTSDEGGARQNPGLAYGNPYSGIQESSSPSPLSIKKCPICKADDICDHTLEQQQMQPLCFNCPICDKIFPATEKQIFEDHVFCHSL
# B2: TNFAIP3-interacting protein 1 (Homo sapiens), Q15025 (parent)
# chain: MEGRGPYRIYDPGGSVPSGEASAAFERLVKENSRLKEKMQGIKMLGELLEESQMEATRLRQKAEELVKDNELLPPPSPSLGSFDPLAELTGKDSNVTASPTAPACPSDKPAPVQKPPSSGTSSEFEVVTPEEQNSPESSSHANAMALGPLPREDGNLMLHLQRLETTLSVCAEEPDHGQLFTHLGRMALEFNRLASKVHKNEQRTSILQTLCEQLRKENEALKAKLDKGLEQRDQAAERLREENLELKKLLMSNGNKEGASGRPGSPKMEGTGKKAVAGQQQASVTAGKVPEVVALGAAEKKVKMLEQQRSELLEVNKQWDQHFRSMKQQYEQKITELRQKLADLQKQVTDLEAEREQKQRDFDRKLLLAKSKIEMEETDKEQLTAEAKELRQKVKYLQDQLSPLTRQREYQEKEIQRLNKALEEALSIQTPPSSPPTAFGSPEGAGALLRKQELVTQNELLKQQVKIFEEDFQRERSDRERMNEEKEELKKQVEKLQAQVTLSNAQLKAFKDEEKAREALRQQKRKAKASGERYHVEPHPEHLCGAYPYAYPPMPAMVPHHGFEDWSQIRYPPPPMAMEHPPPLPNSRLFHLPEYTWRLPCGGVRNPNQSSQVMDPPTARPTEPESPKNDREGPQ
# partner: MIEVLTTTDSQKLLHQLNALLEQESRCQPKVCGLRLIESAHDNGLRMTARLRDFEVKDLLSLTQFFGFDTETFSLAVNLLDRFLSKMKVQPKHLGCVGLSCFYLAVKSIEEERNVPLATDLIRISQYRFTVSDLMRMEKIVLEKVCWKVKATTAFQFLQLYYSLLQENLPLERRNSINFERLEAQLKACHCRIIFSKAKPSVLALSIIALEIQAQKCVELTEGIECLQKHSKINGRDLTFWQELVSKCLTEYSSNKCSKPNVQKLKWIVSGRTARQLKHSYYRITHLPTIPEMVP
# B3: T-cell leukemia/lymphoma protein 1A (Homo sapiens), P56279 (parent)
# chain: B1 chain
# partner: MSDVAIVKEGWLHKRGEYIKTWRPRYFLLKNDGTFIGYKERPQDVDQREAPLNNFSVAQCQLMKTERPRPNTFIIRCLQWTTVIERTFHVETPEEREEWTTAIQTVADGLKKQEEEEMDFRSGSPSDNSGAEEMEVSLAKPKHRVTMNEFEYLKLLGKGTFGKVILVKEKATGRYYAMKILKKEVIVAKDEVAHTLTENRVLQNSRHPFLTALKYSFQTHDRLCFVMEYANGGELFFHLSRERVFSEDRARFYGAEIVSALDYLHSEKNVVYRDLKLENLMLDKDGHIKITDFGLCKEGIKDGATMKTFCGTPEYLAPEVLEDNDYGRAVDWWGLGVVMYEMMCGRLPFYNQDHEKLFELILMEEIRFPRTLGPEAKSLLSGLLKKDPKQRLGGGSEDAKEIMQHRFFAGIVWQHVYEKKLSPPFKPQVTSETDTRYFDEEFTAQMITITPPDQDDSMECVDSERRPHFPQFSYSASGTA
# B4: Zinc finger protein SNAI1 (Homo sapiens), O95863 (parent)
# chain: MPRSFLVRKPSDPNRKPNYSELQDSNPEFTFQQPYDQAHLLAAIPPPEILNPTASLPMLIWDSVLAPQAQPIAWASLRLQESPRVAELTSLSDEDSGKGSQPPSPPSPAPSSFSSTSVSSLEAEAYAAFPGLGQVPKQLAQLSEAKDLQARKAFNCKYCNKEYLSLGALKMHIRSHTLPCVCGTCGKAFSRPWLLQGHVRTHTGEKPFSCPHCSRAFADRSNLRAHLQTHSDVKKYQCQACARTFSRMSLLHKHQESGCSGCPR
# B5: PHD finger protein 21A (Homo sapiens), Q96BD5 (parent)
# chain: MELQTLQEALKVEIQVHQKLVAQMKQDPQNADLKKQLHELQAKITALSEKQKRVVEQLRKNLIVKQEQPDKFQIQPLPQSENKLQTAQQQPLQQLQQQQQYHHHHAQQSAAASPNLTASQKTVTTASMITTKTLPLVLKAATATMPASVVGQRPTIAMVTAINSQKAVLSTDVQNTPVNLQTSSKVTGPGAEAVQIVAKNTVTLVQATPPQPIKVPQFIPPPRLTPRPNFLPQVRPKPVAQNNIPIAPAPPPMLAAPQLIQRPVMLTKFTPTTLPTSQNSIHPVRVVNGQTATIAKTFPMAQLTSIVIATPGTRLAGPQTVQLSKPSLEKQTVKSHTETDEKQTESRTITPPAAPKPKREENPQKLAFMVSLGLVTHDHLEEIQSKRQERKRRTTANPVYSGAVFEPERKKSAVTYLNSTMHPGTRKRGRPPKYNAVLGFGALTPTSPQSSHPDSPENEKTETTFTFPAPVQPVSLPSPTSTDGDIHEDFCSVCRKSGQLLMCDTCSRVYHLDCLDPPLKTIPKGMWICPRCQDQMLKKEEAIPWPGTLAIVHSYIAYKAAKEEEKQKLLKWSSDLKQEREQLEQKVKQLSNSISKCMEMKNTILARQKEMHSSLEKVKQLIRLIHGIDLSKPVDSEATVGAISNGPDCTPPANAATSTPAPSPSSQSCTANCNQGEETK
# partner: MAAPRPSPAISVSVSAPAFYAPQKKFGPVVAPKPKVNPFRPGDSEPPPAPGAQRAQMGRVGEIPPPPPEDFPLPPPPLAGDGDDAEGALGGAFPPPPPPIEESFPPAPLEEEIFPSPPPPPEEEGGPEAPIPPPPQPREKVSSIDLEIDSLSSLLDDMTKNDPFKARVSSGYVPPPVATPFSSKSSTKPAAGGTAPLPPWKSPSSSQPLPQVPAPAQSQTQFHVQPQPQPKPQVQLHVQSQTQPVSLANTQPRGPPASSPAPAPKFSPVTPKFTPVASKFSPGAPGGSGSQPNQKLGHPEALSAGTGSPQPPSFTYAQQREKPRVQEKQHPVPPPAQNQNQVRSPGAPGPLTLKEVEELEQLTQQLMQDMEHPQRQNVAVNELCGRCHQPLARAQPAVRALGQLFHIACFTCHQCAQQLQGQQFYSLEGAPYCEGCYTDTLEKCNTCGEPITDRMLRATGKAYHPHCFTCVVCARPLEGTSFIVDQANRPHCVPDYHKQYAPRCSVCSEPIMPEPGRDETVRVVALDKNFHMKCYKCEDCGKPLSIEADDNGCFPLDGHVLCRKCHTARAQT
# Variants of: B1
# Conditions: with caco2_human CALCOCO2, Q13137
row,Variant,effect of a mutation on the interaction
1,V103M,with no effect

# Variants of: B2
# Conditions: with ccng1_human CCNG1, P51959
row,Variant,effect of a mutation on the interaction
1,V16M,with no effect
2,G178S,with no effect
3,K30T,with no effect
4,Q214K,with no effect

# Variants of: B3
# Conditions: with akt1_human AKT1, P31749
row,Variant,effect of a mutation on the interaction
1,V103M,with no effect

# Variants of: B4
# Conditions: with tri23_human TRIM23, P36406
row,Variant,effect of a mutation on the interaction
1,V118A,with no effect

# Variants of: B4
# Conditions: with trip6_human TRIP6, Q15654
row,Variant,effect of a mutation on the interaction
1,V118A,with no effect

# Variants of: B4
# Conditions: with k1h1_human KRT31, Q15323
row,Variant,effect of a mutation on the interaction
1,V118A,with no effect

# Variants of: B5
# Conditions: with zyx_human ZYX
row,Variant,effect of a mutation on the interaction
1,R347H,with no effect

# Source: IntAct's records for PubMed 31515488
